Patent US9221831B2, “Buprenorphine analogs” (dated 2015)

How the values were obtained:
μ-opioid receptor = μ-opioid receptor (Homo sapiens (Human), UniProt P35372); experiment: μ-opioid receptor functional assay ([35S]GTPγS); conditions: [35S]GTPγS functional assay
κ opioid receptor = κ opioid receptor (Homo sapiens (Human), UniProt P41145); experiment: κ-opioid receptor functional assay ([35S]GTPγS); conditions: [35S]GTPγS functional assay
[1] = target: human opioid receptor-like (ORL-1) (Homo sapiens (Human), UniProt P41146); experiment: ORL-1 receptor binding assay ([3H]-nociceptin)
δ opioid receptor = δ opioid receptor (Homo sapiens (Human), UniProt P41143); experiment: δ-opioid receptor functional assay ([35S]GTPγS); conditions: [35S]GTPγS functional assay

| Compound | GTPγS Opioid Receptor μ Emax (μ-opioid receptor) | GTPγS Opioid Receptor κ Emax (κ opioid receptor) | Binding Affinity, ORL-1 [1] | GTPγS Opioid Receptor μ EC50 (μ-opioid receptor) | GTPγS Opioid Receptor δ Emax (δ opioid receptor) | GTPγS Opioid Receptor κ EC50 (κ opioid receptor) |
| --- | --- | --- | --- | --- | --- | --- |
| COc1ccc2c3c1O[C@H]1[C@@]4(OC)CC[C@@]5(C[C@@H]4CNCC(N)=O)[C@@H](C2)N(CC2CC2)CC[C@]315 | 31.25% | 29.25% | – | – | – | – |
| COc1ccc2c3c1O[C@H]1[C@@]4(OC)CC[C@@]5(C[C@@H]4CSc4nc6ccccc6s4)[C@@H](C2)N(CC2CC2)CC[C@]315 | – | 94.00% | Inactive | Inactive | 79.00% | – |
| COc1ccc2c3c1O[C@H]1[C@@]4(OC)CC[C@@]5(C[C@@H]4CNC(=O)[C@H](C)N)[C@@H](C2)N(CC2CC2)CC[C@]315 | – | – | – | Inactive | – | – |
| COc1ccc2c3c1O[C@H]1[C@@]4(OC)CC[C@@]5(C[C@@H]4COC(=O)[C@@H](N)CCC(N)=O)[C@@H](C2)N(CC2CC2)CC[C@]315 | – | 43.83% | – | Inactive | – | – |
| COc1ccc2c3c1O[C@H]1[C@@]4(OC)CC[C@@]5(C[C@@H]4COCc4cccc(C(=N)N)c4)[C@@H](C2)N(CC2CC2)CC[C@]315 | – | 39.40% | – | Inactive | – | – |
| COc1ccc2c3c1O[C@H]1[C@@]4(OC)CC[C@@]5(C[C@@H]4COCc4cccc(NCC(=O)O)c4)[C@@H](C2)N(CC2CC2)CC[C@]315 | – | 79.67% | – | Inactive | 82.00% | – |
| CO[C@]12CC[C@@]3(C[C@@H]1COCc1cccc(NC(C)=O)c1)[C@H]1Cc4ccc(O)c5c4[C@@]3(CCN1CC1CC1)[C@H]2O5 | – | 23.00% | – | – | – | – |
| COC(=O)COc1cccc(COC[C@H]2C[C@@]34CC[C@]2(OC)[C@@H]2Oc5c(O)ccc6c5[C@@]23CCN(CC2CC2)[C@@H]4C6)c1 | – | 40.33% | – | – | – | – |
| CNC(=O)Nc1cccc(COC[C@H]2C[C@@]34CC[C@]2(OC)[C@@H]2Oc5c(O)ccc6c5[C@@]23CCN(CC2CC2)[C@@H]4C6)c1 | – | 42.00% | – | – | – | – |
| CO[C@]12CC[C@@]3(C[C@@H]1COCc1ccccc1)[C@H]1Cc4ccc(C#N)c5c4[C@@]3(CCN1C)[C@H]2O5 | 101.00% | 95.00% | Inactive | – | – | – |
| COc1ccc2c3c1O[C@H]1[C@@]4(OC)CC[C@@]5(C[C@@H]4COCC(N)=O)[C@@H](C2)N(CC2CC2)CC[C@]315 | 24.50% | 59.00% | – | – | – | – |
| COc1ccc2c3c1O[C@H]1[C@@]4(OC)CC[C@@]5(C[C@@H]4COCc4ccccc4)[C@@H](C2)N(CCC(=O)O)CC[C@]315 | 62.00% | 94.33% | Inactive | – | – | – |
| CO[C@]12CC[C@@]3(C[C@@H]1COCc1ccccc1)[C@H]1Cc4ccc(OCC(=O)O)c5c4[C@@]3(CCN1CC1CC1)[C@H]2O5 | 61.33% | 92.25% | Inactive | – | – | – |
| COc1ccc2c3c1O[C@H]1[C@@]4(OC)CC[C@@]5(C[C@@H]4COCc4ccccc4)[C@@H](C2)N(CCC(N)=O)CC[C@]315 | 78.67% | 103.67% | Inactive | – | – | – |
| CO[C@]12CC[C@@]3(C[C@@H]1COCc1ccccc1)[C@H]1Cc4ccc(C(=O)O)c5c4[C@@]3(CCN1C)[C@H]2O5 | 90.00% | 107.67% | Inactive | – | – | – |
| COc1ccc2c3c1O[C@H]1[C@@]4(OC)CC[C@@]5([C@@H](CCC(=O)O)[C@@H]4COCc4ccccc4)[C@@H](C2)N(CC2CC2)CC[C@]315 | – | 41.00% | – | – | – | – |
| COc1ccc2c3c1O[C@H]1[C@@]4(OC)CC[C@@]5(C[C@@H]4COCc4c(C)noc4C)[C@@H](C2)N(CC2CC2)CC[C@]315 | 31.75% | 92.67% | – | – | 83.33% | – |
| COc1ccc2c3c1O[C@H]1[C@@]4(OC)CC[C@@]5(C[C@@H]4COC(=O)[C@H](C)N)[C@@H](C2)N(CC2CC2)CC[C@]315 | – | 45.00% | Inactive | Inactive | – | – |
| COc1ccc2c3c1O[C@H]1[C@@]4(OC)CC[C@@]5(C[C@@H]4COCc4ccc(OCC(=O)O)cc4)[C@@H](C2)N(CC2CC2)CC[C@]315 | – | 85.33% | Inactive | Inactive | 87.00% | – |
| CO[C@]12CC[C@@]3(C[C@@H]1COCc1ccccc1)[C@H]1Cc4ccc(CC(O)CO)c5c4[C@@]3(CCN1CC1CC1)[C@H]2O5 (some centres unmarked) | 38.33% | 80.33% | – | – | – | – |
| CO[C@]12CC[C@@]3(C[C@@H]1COCc1ccccc1)[C@H]1Cc4ccc(-c5nn[nH]n5)c5c4[C@@]3(CCN1CC1CC1)[C@H]2O5 | 27.33% | 68.00% | – | – | – | – |
| COc1ccc2c3c1O[C@H]1[C@@]4(OC)CC[C@@]5(C[C@@H]4CSc4nc(C)ns4)[C@@H](C2)N(C)CC[C@]315 | – | – | Inactive | – | – | Inactive |

| Compound | GTPγS Opioid Receptor μ Emax (μ-opioid receptor) | GTPγS Opioid Receptor κ Emax (κ opioid receptor) | Binding Affinity, ORL-1 [1] | GTPγS Opioid Receptor μ EC50 (μ-opioid receptor) | GTPγS Opioid Receptor δ Emax (δ opioid receptor) | GTPγS Opioid Receptor κ EC50 (κ opioid receptor) |
| --- | --- | --- | --- | --- | --- | --- |
| CO[C@]12CC[C@@]3(C[C@@H]1COCc1ccc(C(N)=O)cc1)[C@H]1Cc4ccc(O)c5c4[C@@]3(CCN1CC1CC1)[C@H]2O5 | – | 17.33% | – | – | – | – |
| COc1ccc2c3c1O[C@H]1[C@@]4(OC)CC[C@@]5(C[C@@H]4COCc4cccc(CC(=O)O)c4)[C@@H](C2)N(CC2CC2)CC[C@]315 | – | 36.67% | – | Inactive | – | – |
| COc1ccc2c3c1O[C@H]1[C@@]4(OC)CC[C@@]5(C[C@@H]4COCc4ccc(NC(C)=O)cc4)[C@@H](C2)N(CC2CC2)CC[C@]315 | – | 28.00% | – | Inactive | – | – |
| COc1ccc2c3c1O[C@H]1[C@@]4(OC)CC[C@@]5(C[C@@H]4COCc4cccc(NS(C)(=O)=O)c4)[C@@H](C2)N(CC2CC2)CC[C@]315 | – | – | – | – | – | Inactive |
| COc1ccc2c3c1O[C@H]1[C@@]4(OC)CC[C@@]5(C[C@@H]4COC(=O)[C@@H](N)CO)[C@@H](C2)N(CC2CC2)CC[C@]315 | – | 48.00% | – | Inactive | – | – |
| COc1ccc2c3c1O[C@H]1[C@@]4(OC)CC[C@@]5(C[C@@H]4COCC(O)CO)[C@@H](C2)N(CC2CC2)CC[C@]315 (some centres unmarked) | – | 87.67% | – | Inactive | – | – |
| CO[C@]12CC[C@@]3(C[C@@H]1COCc1ccccc1)[C@H]1Cc4ccc(C#N)c5c4[C@@]3(CCN1CC1CC1)[C@H]2O5 | 44.60% | 85.00% | – | – | – | – |
| CO[C@]12CC[C@@]3(C[C@@H]1COCc1ccccc1)[C@H]1Cc4ccc(C(O)CO)c5c4[C@@]3(CCN1CC1CC1)[C@H]2O5 (some centres unmarked) | 74.67% | 89.00% | – | – | – | – |
| COCCOCCOCCOC[C@H]1C[C@@]23CC[C@]1(OC)[C@@H]1Oc4c(OC)ccc5c4[C@@]12CCN(CC1CC1)[C@@H]3C5 | – | 26.00% | Inactive | Inactive | – | – |
| COc1ccc2c3c1O[C@H]1[C@@]4(OC)CC[C@@]5(C[C@@H]4COCc4ccc(N(S(C)(=O)=O)S(C)(=O)=O)cc4)[C@@H](C2)N(CC2CC2)CC[C@]315 | – | 23.33% | – | – | – | – |
| COc1ccc2c3c1O[C@H]1[C@@]4(OC)CC[C@@]5(C[C@@H]4CSc4nncs4)[C@@H](C2)N(CC2CC2)CC[C@]315 | – | 46.67% | Inactive | Inactive | – | – |
| CO[C@]12CC[C@@]3(C[C@@H]1COCc1cccc(OCC(=O)O)c1)[C@H]1Cc4ccc(O)c5c4[C@@]3(CCN1CC1CC1)[C@H]2O5 | – | 35.00% | – | – | – | – |
| COCCOCCOCCOCCOCCOC[C@H]1C[C@@]23CC[C@]1(OC)[C@@H]1Oc4c(OC)ccc5c4[C@@]12CCN(CC1CC1)[C@@H]3C5 | – | 18.75% | Inactive | Inactive | – | – |
| CO[C@]12CC[C@@]3(C[C@@H]1COCc1ccccc1)[C@H]1Cc4ccc(C(=O)O)c5c4[C@@]3(CCN1CC1CC1)[C@H]2O5 | – | 84.67% | – | – | – | – |
| COCCOCCOCCOCCOCCOc1ccc(COC[C@H]2C[C@@]34CC[C@]2(OC)[C@@H]2Oc5c(OC)ccc6c5[C@@]23CCN(CC2CC2)[C@@H]4C6)cc1 | – | – | Inactive | Inactive | – | Inactive |
| COc1ccc2c3c1O[C@H]1[C@@]4(OC)CC[C@@]5([C@@H](CC#N)[C@@H]4COCc4ccccc4)[C@@H](C2)N(CC2CC2)CC[C@]315 | 22.75% | 38.00% | – | – | – | – |
| COc1ccc2c3c1O[C@H]1[C@@]4(OC)CC[C@@]5(C[C@@H]4COCc4ccc(CC(=O)O)cc4)[C@@H](C2)N(CC2CC2)CC[C@]315 | 17.33% | 16.67% | – | – | – | – |
| COc1ccc2c3c1O[C@H]1[C@@]4(OC)CC[C@@]5(C[C@@H]4COCc4ccccc4)[C@@H](C2)N(Cc2nn[nH]n2)CC[C@]315 | 101.33% | 65.00% | – | – | – | – |
| COCCOCCOCCOc1ccc(COC[C@H]2C[C@@]34CC[C@]2(OC)[C@@H]2Oc5c(OC)ccc6c5[C@@]23CCN(CC2CC2)[C@@H]4C6)cc1 | – | 22.33% | Inactive | Inactive | – | – |
| COc1ccc2c3c1O[C@H]1[C@@]4(OC)CC[C@@]5(C[C@@H]4COCc4ccccc4)[C@@H](C2)N(CC(N)=O)CC[C@]315 | 56.67% | 78.67% | Inactive | – | – | – |
| COc1ccc2c3c1O[C@H]1[C@@]4(OC)CC[C@@]5(C[C@@H]4COCc4ccc(C(=O)NCC(=O)O)cc4)[C@@H](C2)N(CC2CC2)CC[C@]315 | 7.67% | 1.00% | – | – | – | Inactive |
